The list shows a part of the results, in another mix than the full data. Records with an inconclusive call do not appear. Active and inactive are the calls of the source. Calls follow the shape of the full dose curve.
Test: Primary qHTS Assay for Foot and Mouth Disease Virus Antivirals against NCGC Sytravon and CBC Compound Libraries: Firefly Luciferase Signal; also: nearly all actives have a fitted effect of over 60% in size
Conditions: FMDV antiviral cell assay; at 22.9 µM (top of the series) unless noted
For `CCC(=O)N(c1ccccc1)C1(COC)CCN(CCc2cccs2)CC1`, the activity change, negative = inhibition was inactive: -7.37%. With `CCC(=O)N(c1ccccc1)C1(COC)CCN(CCn2nnn(CC)c2=O)CC1` the activity change, negative = inhibition was inactive: 0.764%. With `CN(CCCl)CCCl` the activity change, negative = inhibition was inactive: -2.4% [at 11.5 µM].
% is scaled to controls: 0 for no effect and ±100 for the full control effect.
